## Membrane permeability of cyclic peptides

PAMPA measures passive passage through an artificial lipid membrane.
Permeability is in 10^-6 cm/s, converted from the database's log10 values; higher is more permeable.

SMILES | PAMPA (10^-6 cm/s)
CC(C)C[C@@H]1NC(=O)[C@H]2CCCN2C(=O)[C@H](CC(C)C)N(C)C(=O)[C@@H](CC(C)C)NC(=O)[C@H](C)NC(=O)[C@H](Cc2ccccc2)NC1=O | 0.54
CC(C)C[C@H]1NC(=O)[C@H](C)N(C)C(=O)[C@@H]2CCCN2C(=O)[C@H](Cc2ccccc2)NC(=O)[C@H](CC(C)C)N(C)C(=O)[C@@H]2CCCN2C(=O)C[C@H](Cc2ccccc2)NC1=O | 2.6
CCCN1CC(=O)N(C)[C@H](CC(C)C)C(=O)N[C@@H](Cc2ccccc2)CC(=O)N2CCC[C@@H]2C(=O)N[C@H](CC(C)C)C(=O)N[C@@H](Cc2ccccc2)C(=O)N2CCC[C@H]2C1=O | 0.19
CCCN1CC(=O)N(C)[C@H](CC(C)C)C(=O)N(C)[C@@H](CC(C)C)C(=O)N2CCC[C@H]2C(=O)N[C@H](CC(C)C)C(=O)N[C@@H](Cc2ccccc2)C(=O)N2CCC[C@H]2C1=O | 0.78
CC(C)C[C@H]1NC(=O)[C@@H]2CCCN2C(=O)CN(Cc2ccccc2)C(=O)[C@@H](CC(C)C)NC(=O)[C@H](C)N(C)C(=O)[C@H]2CCCN2C(=O)[C@H](Cc2ccccc2)NC1=O | 1.1
CC(C)C[C@@H]1C(=O)N2CCC[C@H]2C(=O)N[C@H](CC(C)C)C(=O)N[C@@H](Cc2ccccc2)C(=O)N[C@@H](Cc2ccccc2)CC(=O)N[C@H](CC(C)C)C(=O)N1C | 5.5
CC(C)C[C@@H]1NC(=O)[C@H](C)N(C)C(=O)[C@H](Cc2ccccc2)NC(=O)CN(Cc2ccccc2)C(=O)[C@H]2CCCN2C(=O)[C@@H](CC(C)C)NC1=O | 0.83
CC(C)C[C@@H]1C(=O)N2CCC[C@H]2C(=O)N(C)[C@@H](CC(C)C)C(=O)N[C@@H](Cc2ccccc2)C(=O)N2CCC[C@H]2C(=O)N(C)[C@H](C)C(=O)N(C)[C@@H](CC(C)C)C(=O)N1C | 5.6
CC(C)C[C@H]1C(=O)N[C@@H](Cc2ccccc2)C(=O)N2CCC[C@H]2C(=O)N(C)[C@H](C)C(=O)N(Cc2ccccc2)CC(=O)N[C@@H](Cc2ccccc2)CC(=O)N2CCC[C@H]2C(=O)N1C | 1.5
CC(C)C[C@@H]1C(=O)N[C@@H](Cc2ccccc2)C(=O)N2CCC[C@@H]2C(=O)N(C)[C@H](C)C(=O)N(C)[C@@H](CC(C)C)C(=O)N(C)[C@@H](CC(C)C)C(=O)N2CCC[C@H]2C(=O)N1C | 6.8
CC(C)C[C@@H]1NC(=O)[C@@H](CC(C)C)NC(=O)[C@H](C)N(C)C(=O)[C@H](Cc2ccccc2)NC(=O)[C@@H](CC(C)C)NC(=O)[C@H]2CCCN2C1=O | 7.1
CC(C)C[C@@H]1C(=O)N2CCC[C@@H]2C(=O)N(C)[C@@H](CC(C)C)C(=O)N[C@@H](Cc2ccccc2)C(=O)N2CCC[C@@H]2C(=O)N(C)[C@@H](C)C(=O)N(C)[C@H](CC(C)C)C(=O)N1C | 13
CC(C)C[C@@H]1C(=O)N(Cc2ccccc2)CC(=O)N2CCC[C@@H]2C(=O)N[C@H](CC(C)C)C(=O)N[C@@H](Cc2ccccc2)C(=O)N2CCC[C@@H]2C(=O)N(C)[C@@H](C)C(=O)N1C | 2
CC(C)C[C@@H]1NC(=O)[C@@H]2CCCN2C(=O)[C@@H](CC(C)C)NC(=O)[C@H](CC(C)C)N(C)C(=O)[C@H](C)N(C)C(=O)[C@H]2CCCN2C(=O)[C@H](Cc2ccccc2)NC1=O | 1.7
CC(C)C[C@@H]1NC(=O)[C@@H](C)NC(=O)[C@H]2CCCN2C(=O)[C@H](Cc2ccccc2)NC(=O)[C@H](CC(C)C)N(C)C(=O)[C@H]2CCCN2C(=O)[C@@H](CC(C)C)N(C)C1=O | 1.7
CC(C)C[C@@H]1NC(=O)[C@@H](C)NC(=O)[C@H]2CCCN2C(=O)[C@H](Cc2ccccc2)NC(=O)[C@@H](CC(C)C)NC(=O)[C@@H]2CCCN2C(=O)CN(Cc2ccccc2)C1=O | 0.2
CC(C)C[C@@H]1C(=O)N2CCC[C@H]2C(=O)N(C)[C@H](CC(C)C)C(=O)N[C@@H](Cc2ccccc2)C(=O)N2CCC[C@@H]2C(=O)N[C@H](C)C(=O)N[C@H](CC(C)C)C(=O)N1C | 0.78
CC(C)C[C@@H]1C(=O)N[C@@H](Cc2ccccc2)C(=O)N2CCC[C@@H]2C(=O)N(C)[C@@H](C)C(=O)N[C@H](CC(C)C)C(=O)N[C@@H](Cc2ccccc2)CC(=O)N2CCC[C@H]2C(=O)N1C | 1.1

The 2 lowest values of PAMPA among the entries above:

| SMILES | PAMPA (10^-6 cm/s) |
|---|---|
| CCCN1CC(=O)N(C)[C@H](CC(C)C)C(=O)N[C@@H](Cc2ccccc2)CC(=O)N2CCC[C@@H]2C(=O)N[C@H](CC(C)C)C(=O)N[C@@H](Cc2ccccc2)C(=O)N2CCC[C@H]2C1=O | 0.19 |
| CC(C)C[C@@H]1NC(=O)[C@@H](C)NC(=O)[C@H]2CCCN2C(=O)[C@H](Cc2ccccc2)NC(=O)[C@@H](CC(C)C)NC(=O)[C@@H]2CCCN2C(=O)CN(Cc2ccccc2)C1=O | 0.2 |

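Lipid, pH, incubation time, direction and concentration are not recorded in the data file. The list need not hold all peptides of the study. Peptides that the database sets to -10, its floor, are left out.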

Collected by the curators of CycPeptMPDB (Li et al. 2023) from Townsend et al. 2020, doi:10.26434/chemrxiv.13335941.v1.